Reference: PubChem BioAssay (NCI)
Where “and” joins values, the source holds several entries; their conditions need not be identical. Identical values can stand only once. The entries are a selection whose mix differs from that of the whole data set. Some of these compounds have results that are not shown, active ones among them. Calls of active or inactive are those of the source. Rule as the data show it: active = growth inhibition above about 70%; inactive = the rest.

Experiments:
[1] = NCI Yeast Anticancer Drug Screen. Data for the rad50 strain (AID 155);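 also: 0% = growth of vehicle-only cultures of the same strain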; settings: S. cerevisiae rad50 strain growth inhibition; at 50.0 µM; active compounds read high
[2] = NCI Yeast Anticancer Drug Screen. Data for the mec2-1 strain (AID 157); settings: S. cerevisiae mec2-1 strain, at 50.0 µM, active compounds read high
[3] = NCI Yeast Anticancer Drug Screen. Data for the sgs1 mgt1 strain (AID 161);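 also: 0% = growth of cultures given vehicle only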; settings: S. cerevisiae sgs1 mgt1 strain, at 50.0 µM, active compounds read high
[4] = NCI Yeast Anticancer Drug Screen. Data for the cln2 rad14 strain (AID 165);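 also: 0% = growth equal to vehicle treated cultures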; settings: S. cerevisiae cln2 rad14 strain, at 50.0 µM, active compounds read high
[5] = NCI Yeast Anticancer Drug Screen. Data for the bub3 strain (AID 167); settings: S. cerevisiae bub3 mutant strain, at 50.0 µM, active compounds read high
[6] = NCI Yeast Anticancer Drug Screen. Data for the mlh1 rad18 strain (AID 175); settings: S. cerevisiae mlh1 rad18 strain growth inhibition; at 50.0 µM; active compounds read high

Measured: growth inhibition

O=C(OC1CN2CCC1CC2)C(O)(C#Cc1ccccc1)c1ccccc1 (stereo not drawn)
inactive: [1] 6.5% | [2] 12.4% | [3] 17.3% | [4] 13.1% | [5] 4.55% | [6] -4.05%

CC#CC(O)(C(=O)OC1CCN(C)CC1)C(C)C (stereo not drawn)
inactive: [1] 22.8% | [2] 2.8% | [3] 0.05% | [4] 3.1% | [5] 12.1% | [6] 20.3%

C=C(C)C#CC(O)(C(=O)OC1CN2CCC1CC2)C1CCCCC1 (stereo not drawn)
inactive: [1] 28.2% | [2] 4.15% | [3] 12.2% | [4] 9.05% | [5] 12.7% | [6] 11.9%

CN1CCC(OC(=O)C(O)(c2ccccc2)C2CCCC2)C1 (stereo not drawn)
inactive: [1] -7.05% | [2] -19.6% | [3] -2.75% | [4] -8.5% | [5] -15.7% | [6] 9.15%

CN1CCCC(OC(=O)C(O)(C#Cc2ccccc2)c2ccccc2)C1 (stereo not drawn)
inactive: [1] 7.45% | [2] 2.7% | [3] -3% | [4] 4.9% | [5] 1.9% | [6] 12.6%

CN1CCCC(O)C1COC(=O)C(O)(c1ccccc1)c1ccccc1 (stereo not drawn)
inactive: [1] 9.25% | [2] -3.7% | [3] 14% | [4] -15.2% | [5] 3.25% | [6] 16.6%

CC#CC(O)(C(=O)OC1C2CCN(CC2)C1C)C1CCCC1 (stereo not drawn)
inactive: [1] 27.2% | [2] 20.7% | [3] 32.5% | [4] 19% | [5] 25.1% | [6] 16%

CN1CCCC(COC(=O)C(O)(c2ccccc2)c2ccccc2)C1 (stereo not drawn)
inactive: [1] -7.9% | [2] 0.95% | [3] -10.1% | [4] -15.7% | [5] -1.9% | [6] -39.1%

CN(C)C(=O)Oc1ccc(-c2ccccc2)cc1C[N+]1(C)CCCCC1
inactive: [1] -2.85% | [2] 3.6% | [3] 4.55% | [4] 7.55% | [5] -4.55% | [6] 5.9%

CC(C)/C=C\C(O)(C(=O)OC1CN2CCC1CC2)c1ccccc1 (stereo not drawn)
inactive: [1] -2.75% | [2] 2.45% | [3] 37.3% | [4] 26.6% | [5] 37.2% | [6] 31%

ClCCN(CCCl)C1CCc2ccccc2C1 (stereo not drawn)
inactive: [1] 7.8% | [2] -11.8% | [3] 23.9% | [4] 39.6% | [5] 5% | [6] 30.6%

C=C(C)C#CC(O)(C(=O)OC1CN2CCC1CC2)c1ccccc1 (stereo not drawn)
inactive: [1] 30.7% | [2] 9.4% | [3] 4.75% | [4] 0.25% | [5] 8.4% | [6] 28.8%

CC1(C)CCCN1CCOC(=O)C(O)(c1ccccc1)C1CCCC1 (stereo not drawn)
inactive: [1] 17.2% | [2] 9.1% | [3] 9.3% | [4] 7.75% | [5] 6.75% | [6] 11.9%

O=C(OCCC1=C2CCN(CC2)C1)C(O)(c1ccccc1)C1CCCC1 (stereo not drawn)
inactive: [1] 26.9% | [2] 11.1% | [3] 45.9% | [4] 16.5% | [5] 28.8% | [6] 28.6%

N#CC(C#N)=Cc1ccc(Br)cc1
inactive: [1] 4.7% and 21.2% | [2] 15.8% and 0.6% | [3] 19.9% and -3.6% | [4] 10.9% and 2.6% | [5] 22.4% and 0.55% | [6] 24.8% and 38.3%

O=C(OCCN(C1CCCC1)C1CCCC1)C(O)(c1ccccc1)c1ccccc1
inactive: [1] -15.3% | [2] 8.35% | [3] -10.5% | [4] 10.1% | [5] 1.8% | [6] -14.1%

ClCCN(CCCl)C1CCCc2ccccc21 (stereo not drawn)
inactive: [1] 12.9% | [2] -17.4% | [3] 8.8% | [4] 20.2% | [5] 6.6% | [6] -12.8%

C#CC(O)(C(=O)OC1CN2CCC1CC2)c1ccccc1 (stereo not drawn)
inactive: [1] -8.45% | [2] 4.65% | [3] 2.35% | [4] -0.7% | [5] 0.05% | [6] 9.95%

O=C(OC1CC2CCCC(C1)N2Cc1ccccc1)C(O)(c1ccccc1)c1ccccc1 (stereo not drawn)
inactive: [1] 46.2% | [2] 11.2% | [3] 49.6% | [4] 12.3% | [5] 27.9% | [6] 48.4%

CCCC#CC(O)(C(=O)OC1CN2CCC1CC2)C1CCCC1 (stereo not drawn)
inactive: [1] 27.1% | [2] 27.8% | [3] 33.5% | [4] 15.2% | [5] 25.1% | [6] 26.4%

O=C(OCCN1C2CCCC1CCC2)C(O)(c1ccccc1)c1ccccc1
inactive: [1] -61.5% | [2] -4.8% | [3] -7.1% | [4] -0.05% | [5] 19.8% | [6] -12.8%

O=C(OC1CCN2CCCC12)C(O)(c1ccccc1)c1ccccc1 (stereo not drawn)
inactive: [1] 4.15% | [2] -4.65% | [3] -0.55% | [4] -4.7% | [5] -12.3% | [6] -17.9%

CC/C=C\C(O)(C(=O)OC1CCN(C)CC1)C1CCCC1 (stereo not drawn)
inactive: [1] 53.1% | [2] 31.3% | [3] 53.5% | [4] 37.1% | [5] 38.7% | [6] 46.7%
